Patent US20240024347A1, “PRODRUGS OF 6-MERCAPTOPURINE” (The Johns Hopkins University, priority 2020, published 2024)

Test system: healthy NSG mice
Details: 20 mg/kg, 5 d/week, i.p.; decreased white blood cell and platelet count compared to vehicle at study termination
Protocol: Animal weights and body condition scores were measured three times per week. After twenty one days, surviving mice were euthanized and blood collected for clinical chemistry measurements (complete blood count with differential, clinical chemistries). […] 80% of mice survived >2 weeks in the MK-905 40 mg/kg group, and 100% of mice survived the study in the vehicle and MK-905 20 mg/kg groups.

## Sc1ncnc2nc[nH]c12 [6-MP, 6-mercaptopurine]
  Myelosuppression (marker for active metabolite): noted
